Converted amounts (≈) assume the structure as drawn.
Tests used:
[1] = human, microsomes, 1 µM
[2] = in vitro; settings: Wistar, rat, microsomes
[3] = in vitro; settings: human, Caco-2
[4] = in vitro; settings: CD-1, mouse, liver microsomes
[5] = in vitro; settings: human, microsomes
[6] = in vitro; settings: NMRI, mouse, microsomes
[7] = target: T1, Vasopressin V1a receptor (Homo sapiens, UniProt P37288)
[8] = target: T1, Vasopressin V1a receptor; remark: listed apart in the source
[9] = animal or person; settings: Mus musculus, NMRI, po, read-out: INH
[10] = animal or person; settings: Mus musculus, NMRI, po, read-out: INH; remark: listed apart in the source
[11] = in vivo; settings: Wistar, rat, iv, 3 mg/kg
[12] = in vivo; settings: Wistar, rat, po, 3 mg/kg
[13] = in vivo; settings: Wistar, rat, po, 3 mg/kg; remark: listed apart in the source
[14] = in vivo; settings: Wistar, rat, plasma, po, 3 mg/kg
[15] = in vivo; settings: Wistar, rat, brain, po, 3 mg/kg
[16] = in vivo; settings: Wistar, rat, plasma, po, 3 mg/kg; remark: listed apart in the source
[17] = in vivo; settings: Wistar, rat, brain, po, 3 mg/kg; remark: listed apart in the source
[18] = in vivo; settings: Wistar, rat, plasma, iv, 3 mg/kg
[19] = in vivo; settings: Wistar, rat, plasma, po, 3 mg/kg; remark: listed apart in the source
[20] = in vivo; settings: Wistar, rat, brain, po, 3 mg/kg; remark: listed apart in the source
[21] = in vivo; settings: Wistar, rat, plasma, iv, 3 mg/kg; remark: listed apart in the source
[22] = in vivo; settings: Wistar, rat, plasma, iv, 3 mg/kg; remark: listed apart in the source
[23] = in vivo; settings: Wistar, rat, plasma, po, 3 mg/kg; remark: listed apart in the source
[24] = in vivo; settings: male, dog, plasma, po, 3 mg/kg
[25] = in vivo; settings: female, dog, plasma, po, 3 mg/kg
[26] = in vivo; settings: Wistar, rat, po, 1.5 mg/kg
[27] = in vivo; settings: Wistar, rat, po, 1.5 mg/kg; remark: listed apart in the source
[28] = in vivo; settings: Wistar, rat, po, 300 mg/kg
[29] = in vivo; settings: guinea pig, po, 10 mg/kg
[30] = in vivo; settings: dog, po, 10 mg/kg
[31] = physchem; settings: octanol/water
[32] = physchem; settings: buffer, pH 2
[33] = physchem; settings: buffer, pH 6.5
[34] = physchem; settings: buffer, pH 7.4
[35] = physchem
[36] = physchem; settings: buffer, pH 7.4; remark: listed apart in the source
[37] = in vitro; settings: human, hepatocytes
[38] = in vitro; settings: Wistar, rat, hepatocytes
[39] = in vitro; settings: NMRI, mouse, hepatocytes
[40] = in vitro; settings: beagle, dog, hepatocytes
[41] = in vitro; settings: guinea pig, hepatocytes
[42] = in vitro; settings: marmoset, hepatocytes
[43] = in vitro; settings: human, plasma
[44] = in vitro; settings: Wistar, rat, plasma
[45] = in vitro; settings: NMRI, mouse, plasma
[46] = in vitro; settings: dog, plasma
[47] = in vitro; settings: guinea pig, plasma

Amino acid sequences for entries named in this document (tags omitted).
UniProt P37288, whole entry: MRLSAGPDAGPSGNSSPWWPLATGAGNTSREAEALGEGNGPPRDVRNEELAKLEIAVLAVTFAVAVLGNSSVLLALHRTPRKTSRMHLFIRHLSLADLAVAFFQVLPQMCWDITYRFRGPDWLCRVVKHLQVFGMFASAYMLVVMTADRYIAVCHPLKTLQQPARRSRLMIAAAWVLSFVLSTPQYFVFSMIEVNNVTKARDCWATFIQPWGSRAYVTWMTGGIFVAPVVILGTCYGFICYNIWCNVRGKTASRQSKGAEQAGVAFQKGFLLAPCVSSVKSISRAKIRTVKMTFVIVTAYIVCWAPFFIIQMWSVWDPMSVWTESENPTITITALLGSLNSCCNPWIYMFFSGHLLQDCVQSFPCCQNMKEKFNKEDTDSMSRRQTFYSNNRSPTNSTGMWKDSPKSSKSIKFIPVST

**Q.** What does the source list for FC[C@H]1Cc2cc(Cl)ccc2-n2c(nnc2[C@H]2CC[C@H](Oc3ccccn3)CC2)C1?
**A.** CLH [1]: 4.3 mL/day/kg; microsomal CLint at 1 µM [2]: 37 µL/min/mg; Papp A→B at 10 µM [3]: 35 ×10⁻⁶ cm/s; microsomal CLint at 1 µM [4]: 25 µL/min/mg

**Q.** Which microsomal CLint at 1 µM [5] does the source give for CC(C)N[C@H]1Cc2cc(Cl)ccc2-n2c(nnc2[C@H]2CC[C@H](Oc3ccccn3)CC2)C1 here?
**A.** Its microsomal CLint at 1 µM is 128 µL/min/mg.

**Q.** And the microsomal CLint at 1 µM [2]?
**A.** Its microsomal CLint at 1 µM is 123 µL/min/mg.

**Q.** What about the microsomal CLint at 1 µM [6] of the same compound?
**A.** The microsomal CLint at 1 µM was 140 µL/min/mg.

**Q.** And the Papp A→B at 10 µM [3]?
**A.** Its Papp A→B at 10 µM is 17 ×10⁻⁶ cm/s.

**Q.** With OC[C@@H]1Cc2cc(Cl)ccc2-n2c(nnc2[C@H]2CC[C@H](Oc3ccccn3)CC2)C1 as the compound, how does the CLH [1] read?
**A.** Its CLH is 2.9 mL/day/kg.

**Q.** And the microsomal CLint at 1 µM [2]?
**A.** Its microsomal CLint at 1 µM is 43 µL/min/mg.

**Q.** What about the microsomal CLint at 1 µM [6] of the same compound?
**A.** Its microsomal CLint at 1 µM is 6 µL/min/mg.

**Q.** What about the Papp A→B at 10 µM [3] of the same compound?
**A.** Its Papp A→B at 10 µM is 35 ×10⁻⁶ cm/s.

**Q.** Which results are given for OC[C@H]1Cc2cc(Cl)ccc2-n2c(nnc2[C@H]2CC[C@H](Oc3ccccn3)CC2)C1?
**A.** CLH [1]: 1.4 mL/day/kg; microsomal CLint at 1 µM [2]: 43 µL/min/mg; microsomal CLint at 1 µM [6]: 13 µL/min/mg; Papp A→B at 10 µM [3]: 28 ×10⁻⁶ cm/s

**Q.** Which results are given for Clc1ccc2c(c1)CC1(Cc3nnc([C@H]4CC[C@@H](Oc5ccccn5)CC4)n3-2)OCCO1?
**A.** Ki [7]: 0.3 nM; IC50 [8]: 2.4 nM; CLH [1]: 7.2 mL/day/kg; microsomal CLint at 1 µM [2]: 43 µL/min/mg; Papp A→B at 10 µM [3]: 50 ×10⁻⁶ cm/s; microsomal CLint at 1 µM [4]: 44 µL/min/mg; inhibition in vivo at 10 mg/kg [9]: 55%; inhibition in vivo at 3 mg/kg [10]: 34%

**Q.** What does the source list for OCC1Cc2cc(Cl)ccc2-n2c(nnc2[C@H]2CC[C@H](Oc3ccccn3)CC2)C1 (some centres not stated)?
**A.** CLH [1]: 1.4 mL/day/kg; microsomal CLint at 1 µM [2]: 14 µL/min/mg; microsomal CLint at 1 µM [6]: 7 µL/min/mg; Papp A→B at 10 µM [3]: 22 ×10⁻⁶ cm/s

**Q.** For FC[C@@H]1Cc2cc(Cl)ccc2-n2c(nnc2[C@H]2CC[C@H](Oc3ccccn3)CC2)C1, which CLH [1] is on record?
**A.** Its CLH is 2.9 mL/day/kg.

**Q.** What about the microsomal CLint at 1 µM [2] of the same compound?
**A.** The microsomal CLint at 1 µM was 78 µL/min/mg.

**Q.** What about the Papp A→B at 10 µM [3] of the same compound?
**A.** The Papp A→B at 10 µM was 34 ×10⁻⁶ cm/s.

**Q.** What about the microsomal CLint at 1 µM [4] of the same compound?
**A.** The microsomal CLint at 1 µM was 38 µL/min/mg.

**Q.** For CC(C)N[C@@H]1Cc2cc(Cl)ccc2-n2c(nnc2[C@H]2CC[C@H](Oc3ccccn3)CC2)C1, which microsomal CLint at 1 µM [5] is on record?
**A.** The microsomal CLint at 1 µM was 28 µL/min/mg.

**Q.** What about the microsomal CLint at 1 µM [2] of the same compound?
**A.** Its microsomal CLint at 1 µM is 29 µL/min/mg.

**Q.** And the microsomal CLint at 1 µM [6]?
**A.** The microsomal CLint at 1 µM was 24 µL/min/mg.

**Q.** What about the Papp A→B at 10 µM [3] of the same compound?
**A.** The Papp A→B at 10 µM was 20 ×10⁻⁶ cm/s.

**Q.** And the inhibition in vivo at 3 mg/kg [10]?
**A.** The inhibition in vivo at 3 mg/kg was 47%.

**Q.** Which CLH [1] does the source give for Clc1ccc2c(c1)CC1(CCOCC1)Cc1nnc([C@H]3CC[C@H](Oc4ccccn4)CC3)n1-2 here?
**A.** The CLH was 57.6 mL/day/kg.

**Q.** What about the microsomal CLint at 1 µM [2] of the same compound?
**A.** Its microsomal CLint at 1 µM is 60 µL/min/mg.

**Q.** What about the microsomal CLint at 1 µM [4] of the same compound?
**A.** The microsomal CLint at 1 µM was 74 µL/min/mg.

**Q.** For Clc1ccc2c(c1)CC1(Cc3nnc([C@H]4CC[C@H](Oc5ccccn5)CC4)n3-2)OCCO1, which CLH [1] is on record?
**A.** The CLH was 18.7 mL/day/kg.

**Q.** And the AUC(0-t) [11]?
**A.** The AUC(0-t) was 3.05 µM·h.

**Q.** What about the AUC(0-t) [12] of the same compound?
**A.** The AUC(0-t) was 0.757 µM·h.

**Q.** And the AUC(0-t) [13]?
**A.** Its AUC(0-t) is 0.148 µM·h.

**Q.** And the Cmax [14]?
**A.** Its Cmax is 638 nM.

**Q.** And the Cmax [15]?
**A.** The Cmax was 135 nM.

**Q.** And the Tmax [16]?
**A.** Its Tmax is 30 min.

**Q.** What about the Tmax [17] of the same compound?
**A.** The Tmax was 30 min.

**Q.** What about the half-life [18] of the same compound?
**A.** The half-life was 38.4 min.

**Q.** And the half-life [19]?
**A.** Its half-life is 58.2 min.

**Q.** What about the half-life [20] of the same compound?
**A.** The half-life was 81.6 min.

**Q.** And the clearance [21]?
**A.** The clearance was 52800 mL/day/kg.

**Q.** And the Vd [22]?
**A.** Its Vd is 2 L/kg.

**Q.** And the bioavailability [23]?
**A.** The bioavailability was 25%.

**Q.** What about the bioavailability [24] of the same compound?
**A.** The bioavailability was 13%.

**Q.** And the bioavailability [25]?
**A.** Its bioavailability is 15%.

**Q.** What about the Cmax [26] of the same compound?
**A.** The Cmax was 5.9 ng/mL.

**Q.** And the AUC [27]?
**A.** The AUC was 9.57 ng·h/mL.

**Q.** What about the AUC [28] of the same compound?
**A.** The AUC was 11100 ng·h/mL.

**Q.** What about the Cmax [29] of the same compound?
**A.** The Cmax was 107 ng/mL.

**Q.** What about the Cmax [30] of the same compound?
**A.** The Cmax was 132 ng/mL.

**Q.** What about the Papp A→B at 10 µM [3] of the same compound?
**A.** The Papp A→B at 10 µM was 63 ×10⁻⁶ cm/s.

**Q.** What about the microsomal CLint at 1 µM [4] of the same compound?
**A.** The microsomal CLint at 1 µM was 51 µL/min/mg.

**Q.** And the logP [31]?
**A.** The logP was 3.86.

**Q.** And the logD [32]?
**A.** Its logD is 1.5.

**Q.** What about the logD [33] of the same compound?
**A.** Its logD is 3.86.

**Q.** What about the logD [34] of the same compound?
**A.** The logD was 3.86.

**Q.** And the pKa [35]?
**A.** Its pKa is 3.6.

**Q.** What about the solubility thermodynamic [36] of the same compound?
**A.** Its solubility thermodynamic is 35 µM (≈ 15.9 µg/mL).

**Q.** And the hepatocyte CLint [37]?
**A.** The hepatocyte CLint was 3 µL/min/1e6 cells.

**Q.** What about the hepatocyte CLint [38] of the same compound?
**A.** Its hepatocyte CLint is 29 µL/min/1e6 cells.

**Q.** What about the hepatocyte CLint [39] of the same compound?
**A.** Its hepatocyte CLint is 17 µL/min/1e6 cells.

**Q.** What about the hepatocyte CLint [40] of the same compound?
**A.** The hepatocyte CLint was 6 µL/min/1e6 cells.

**Q.** And the hepatocyte CLint [41]?
**A.** The hepatocyte CLint was 12 µL/min/1e6 cells.

**Q.** And the hepatocyte CLint [42]?
**A.** Its hepatocyte CLint is 26 µL/min/1e6 cells.

**Q.** What about the fraction unbound [43] of the same compound?
**A.** The fraction unbound was 0.053.

**Q.** And the fraction unbound [44]?
**A.** Its fraction unbound is 0.022.

**Q.** And the fraction unbound [45]?
**A.** The fraction unbound was 0.033.

**Q.** And the fraction unbound [46]?
**A.** The fraction unbound was 0.041.

**Q.** What about the fraction unbound [47] of the same compound?
**A.** Its fraction unbound is 0.107.

**Q.** And the inhibition in vivo at 10 mg/kg [9]?
**A.** The inhibition in vivo at 10 mg/kg was ≥ 70%.

**Q.** Which microsomal CLint at 1 µM [5] does the source give for CC(C)NC1Cc2cc(Cl)ccc2-n2c(nnc2[C@H]2CC[C@H](Oc3ccccn3)CC2)C1 (mixture of isomers) here?
**A.** Its microsomal CLint at 1 µM is 40 µL/min/mg.

**Q.** And the microsomal CLint at 1 µM [2]?
**A.** The microsomal CLint at 1 µM was 35 µL/min/mg.

**Q.** And the microsomal CLint at 1 µM [6]?
**A.** Its microsomal CLint at 1 µM is 41 µL/min/mg.

**Q.** What about the Papp A→B at 10 µM [3] of the same compound?
**A.** The Papp A→B at 10 µM was 13.3 ×10⁻⁶ cm/s.

**Q.** And the inhibition in vivo at 10 mg/kg [9]?
**A.** The inhibition in vivo at 10 mg/kg was 118%.

**Q.** And the inhibition in vivo at 3 mg/kg [10]?
**A.** Its inhibition in vivo at 3 mg/kg is 80%.
